Reference: patent US20260137794A1, “LIGAND-DRUG CONJUGATE AND USE THEREOF” (SYSTIMMUNE, INC., priority 2022, published 2026)

Protein sequences, listed by entry. Tags and fused reporters are not part of them. Residues count along the entry.
UniProt P20138, 18-364: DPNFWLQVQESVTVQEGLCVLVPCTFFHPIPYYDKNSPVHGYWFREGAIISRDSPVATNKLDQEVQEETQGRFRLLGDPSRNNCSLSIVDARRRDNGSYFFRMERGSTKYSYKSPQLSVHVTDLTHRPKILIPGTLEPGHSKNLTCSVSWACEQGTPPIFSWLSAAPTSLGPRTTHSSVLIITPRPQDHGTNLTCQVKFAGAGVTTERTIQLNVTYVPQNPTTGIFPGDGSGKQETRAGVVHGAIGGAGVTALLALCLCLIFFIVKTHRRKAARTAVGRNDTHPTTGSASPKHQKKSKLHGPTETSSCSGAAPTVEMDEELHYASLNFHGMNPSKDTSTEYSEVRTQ

B1: ANTI-CD33 mAb: Naked anti-CD33 antibody; light chain SEQ ID NO: 1, heavy chain SEQ ID NO: 2 (antibody)
heavy: EVQLVQSGAEVKKPGSSVKVSCKASGYTITDSNIHWVRQAPGQSLEWIGYIYPYNGGTDYNQKFKNRATLTVDNPTNTAYMELSSLRSEDTAFYYCVNGNPWLAYWGQGTLVTVSSASTKGPSVFPLAPSSKSTSGGTAALGCLVKDYFPEPVTVSWNSGALTSGVHTFPAVLQSSGLYSLSSVVTVPSSSLGTQTYICNVNHKPSNTKVDKRV[human IgG1 Fc not spelt out]
light: DIQLTQSPSTLSASVGDRVTITCRASESLDNYGIRFLTWFQQKPGKAPKLLMYAASNQGSGVPSRFSGSGSGTEFTLTISSLQPDDFATYYCQQTKEVPWSFGQGTKVEVKRTVAAPSVFIFPPSDEQLKSGTASVVCLLNNFYPREAKVQWKVDNALQSGNSQESVTEQDSKDSTYSLSSTLTLSKADYEKHKVYACEVTHQGLSSPVCTKSFNRGEC
B2: ANTI-CD33-Ex01 (10) (conjugate)
light: B1 light
heavy: B1 heavy
B3: ANTI-CD33-Ex01 (2)-R01-1 (8) (conjugate)
light: B1 light
heavy: B1 heavy

Assays:
[1] = test system: multiple AML cell strains; experiment: CD33 cell killing experiment, conclusion over the cell models; type: cell-based, Human; conditions: in words; MTS
Experimental: (§1) Pharmacodynamic test at cellular level: cell plating was performed on a 96-well plate in a certain density. After the cells adhered to the wall (usually taking at least 4 h), a series of drugs in several folds of dilution were added to each well plate to act for a certain period of time, for killing the cells. At the end of action of the drugs, a certain amount of MTS was added to react at 37° C. under 5% CO2 for 1-4 h. After color development using the MTS reagent, the OD 490 nm absorbance value was detected using a microplate reader, and then the IC50 for cell killing was analyzed and calculated.
(§2) • 1) Cell revival: after preheating in a 37° C.′ water bath, 9 mL of the culture medium was taken and put in a centrifuge tube for later use; the cells were taken out from liquid nitrogen, immediately quickly shaked at 37° C.′ to fully thaw, then transferred into the centrifuge tube, and centrifuged at 1000 rpm for 3 min at room temperature: the supernatant was discarded, and the precipitate was re-suspended with 1 mL of complete culture medium, where the process should be gentle, to prevent bubbles from being blown out, thereby reducing damage to the cells; the cells were transferred into a culture flask, and cultivated in a cell incubator at 37° C., 5% CO2 and 95% relative humidity. […]

[2] = test system: U937; experiment: CD33 cell killing experiment by MTS method, U937; type: cell-based, Human; conditions: U937, CD33 moderate expression, 5 days, read-out: Test drug IC50
Experimental: as §1
(§3) Before addition, according to the concentration of each test sample, a drug (5×mother liquor concentration) was prepared using a preheated 1% FBS culture medium according to the initial concentration of 5.0 μM, and then diluted according to 10 folds of gradient concentration, totaling 8 detection points, followed by standing for later use. During the preparation, each concentration was uniformly mixed using an oscillator, specifically, oscillating for 2-3 sec at a time, with an interval of 1 sec, and then oscillating again, repeating 2-3 times.
(§4) The final concentration of the antibody and the antibody conjugated drug was 0 (Vehicle), 0.6 pM, 4.25 pM, 29.75 pM, 0.21 nM, 1.46 nM, 10.20 nM, 71.43 nM, 500 nM.
as §2

[3] = test system: HL-60; experiment: CD33 cell killing experiment by MTS method, HL-60; type: cell-based, Human; conditions: HL-60, CD33 moderate expression, 5 days, read-out: Test drug IC50
Experimental: as §1, §3, §4, §2

[4] = test system: HEL92.1.7; experiment: CD33 cell killing experiment by MTS method, HEL92.1.7; type: cell-based, Human; conditions: HEL92.1.7, CD33 high expression, 5 days, read-out: Test drug IC50
Experimental: as §1, §3, §4, §2

[5] = test system: A431; experiment: CD33 cell killing experiment by MTS method, A431; type: cell-based, Human; conditions: A431, CD33 negative, 5 days, read-out: Test drug IC50
Experimental: as §1, §3, §4, §2

[6] = test system: CMK; experiment: CD33 cell killing experiment by MTS method, CMK; type: cell-based, Human; conditions: CD33 moderate expression, 5 days, read-out: Test drug IC50
Experimental: as §1, §3, §4, §2

[7] = target: recombinant human CD33 protein (Homo sapiens, UniProt P20138); experiment: Binding of anti-CD33 antibody-drug conjugate to recombinant human CD33 protein by ELISA; conditions: in words, 3-fold gradient from 2 μg/mL
Experimental: The binding ability of antibody to antigen can be preliminarily judged by ELISA. Here, recombinant human CD33 protein was immobilized on an enzyme strip, and tested with the addition of a series of concentration gradients of CD33 antibody. • 1. Coating: coating with CD33 diluted to 0.5 ng/ml, using 1×PBS, at 100 μL per well, at 4° C. overnight. • 2. Plate washing: washing the plate with a plate wash buffer (1×PBS+0.05% Tween 20) 3 times, at 200 μL per well, while standing for 1 min each time. • 3. Sealing: after the 3rd patting-dry of the wash buffer, sealing with a sealing buffer (1/PBS+0.05% Tween20+1% BSA), at 200 μL per well, at 37° C. for 1 h. • 4. Plate washing: washing the plate with the plate wash buffer 3 times, at 200 μL per well, while standing for 1 min each time. • 5. Primary antibody loading: diluting the antibody-drug conjugate (same as Test example 1) at a 3-fold gradient from 2 μg/mL using a sample diluent (1×PBS+0.05% Tween20+1% BSA); washing the plate with the plate wash buffer 3 times, at 200 μL per well, while standing for 1 min each time. • 6. Secondary antibody loading: diluting Solarbio rabbit anti-human antibody at a ratio of 1:10000 with an assay buffer (1<PBS+0.05% Tween20+1% BSA) to 100 μL per well, while standing at 37° C. for 1 h. • 7. Plate washing: washing the plate with the plate wash buffer 3 times, at 200 μL per well, while standing for 1 min each time. • 8. Reading: after 7 min of color development with the addition of a TMB color development liquid (50 μL per well), adding 2M H2SO4 (50 μL per well) to terminate it. Plate reading using a microplate reader at 450 nm.

| Molecule | killing activity against the multiple AML cell strains [1] | IC50 [2] | IC50 [3] | IC50 [4] | IC50 [5] | IC50 [6] | binding ability to recombinant human CD33 protein, compared with naked anti-CD33 antibody [7] |
| --- | --- | --- | --- | --- | --- | --- | --- |
| B1 | no significant killing activity | > 500 nM | > 500 nM | > 500 nM | > 500 nM | > 500 nM |  |
| B2 |  | 31.6 nM | 5.39 nM | 10.1 nM | 87.2 nM | 11.5 nM | basically the same |
| B3 |  |  |  |  |  |  | basically the same |
